From patent US20140065611A1, “MODIFICATION OF NEURO[…] OF MERCURY BY A GENETIC PO[…] COPROPOR[…] IN CHILDREN” (University of Washington through its Center for …, priority 2012, published 2014)
Like-named read-outs stand apart in the source and are kept apart here. Marks after values point to notes of the source that are not given here.

Legend:
children [1] = conditions: for Beta (SE), Hg^0 dose-response, RAVALT TR 5 / rpart, Hg^0 dose-response, RAVALT TR 5: girls, acute Hg^0 (HgU Year 2)
children [2] = conditions: boys, Year 7, maximum Hg^0
children [3] = system: children
children [4] = conditions: for Beta (SE), Hg^0 dose-response, WRAVMA - Pegs Dominant / rpart, Hg^0 dose-response, WRAVMA - Pegs Dominant: Year 7, maximum Hg^0
children [5] = conditions: boys
children [6] = conditions: boys; remark: listed apart in the source
children [7] = conditions: boys; remark: listed apart in the source
children [8] = conditions: boys; remark: listed apart in the source
children [9] = conditions: boys; remark: listed apart in the source
children [10] = conditions: boys; remark: listed apart in the source
children [11] = conditions: girls, Year 2, p≦0.02
children [12] = system: children; remark: listed apart in the source
[13] = boys, CPOX4 Het or Mut, Year 7, maximum Hg^0
[14] = boys, CPOX WT, Year 7, maximum Hg^0
[15] = boys, CPOX4 Het or Mut, Year 7, cumulative Hg^0
[16] = boys, CPOX WT, Year 7, cumulative Hg^0
[17] = girls, CPOX4 Het or Mut, acute Hg^0 (HgU Year 2)
[18] = girls, CPOX WT, acute Hg^0 (HgU Year 2)
[19] = CPOX4 Het or Mut, Year 7, cumulative Hg^0
[20] = CPOX4 Het or Mut, Year 7, maximum Hg^0
[21] = CPOX WT, Year 7, cumulative Hg^0
[22] = CPOX4 Het or Mut, acute Hg^0 (HgU Year 2)
[23] = CPOX WT, acute Hg^0 (HgU Year 2)

Substance: elemental mercury [Hg^0]
- rpart, Hg^0 dose-response, RAVALT TR5 - List A (children [1]; [13]): −.36 (.03)*
- Beta (SE), Hg^0 dose-response, RAVALT TR5 - List A (children [1]; [14]): .51 (.43)
- rpart, Hg^0 dose-response, RAVALT TR5 - List A (children [1]; [14]): .13 (.24)
- Beta (SE), Hg^0 dose-response, RAVALT TR 5 (children [1]; CPOX4 Het or Mut): −1.34 (.47)*
- rpart, Hg^0 dose-response, RAVALT TR 5 (children [1]; CPOX4 Het or Mut): −.38 (.006)*
- Beta (SE), Hg^0 dose-response, RAVALT TR 5 (children [1]; CPOX WT): .28 (.43)
- rpart, Hg^0 dose-response, RAVALT TR 5 (children [1]; CPOX WT): .07 (.51)
- Beta (SE), Hg^0 dose-response, RAVALT TR7 - A/post B (children [2]; CPOX4 Het or Mut): −2.24 (.82)*
- rpart, Hg^0 dose-response, RAVALT TR7 - A/post B (children [2]; CPOX4 Het or Mut): −.42 (.01)*
- Beta (SE), Hg^0 dose-response, RAVALT TR7 - A/post B (children [2]; CPOX WT): .52 (.52)
- rpart, Hg^0 dose-response, RAVALT TR7 - A/post B (children [2]; CPOX WT): .11 (.33)
- Beta (SE), Hg^0 dose-response, RAVALT TR8 - List A 20′ (children [3]; [15]): −2.01 (.92)*
- rpart, Hg^0 dose-response, RAVALT TR8 - List A 20′ (children [3]; [15]): −.35 (.04)*
- Beta (SE), Hg^0 dose-response, RAVALT TR8 - List A 20′ (children [3]; [13]): −2.14 (.83)*
- rpart, Hg^0 dose-response, RAVALT TR8 - List A 20′ (children [3]; [13]): −.40 (.01)*
- Beta (SE), Hg^0 dose-response, RAVALT TR8 - List A 20′ (children [3]; [16]): .32 (.60)
- rpart, Hg^0 dose-response, RAVALT TR8 - List A 20′ (children [3]; [16]): .06 (.60)
- Beta (SE), Hg^0 dose-response, RAVALT TR8 - List A 20′ (children [3]; [14]): 84 (.58)
- rpart, Hg^0 dose-response, RAVALT TR8 - List A 20′ (children [3]; [14]): .16 (.15)
- Beta (SE), Hg^0 dose-response, RAVALT TR8 - List A 20′ (children [3]; [17]): −1.69 (.55)*
- rpart, Hg^0 dose-response, RAVALT TR8 - List A 20′ (children [3]; [17]): −.40 (.003)*
- Beta (SE), Hg^0 dose-response, RAVALT TR8 - List A 20′ (children [3]; [18]): .34 (.45)
- rpart, Hg^0 dose-response, RAVALT TR8 - List A 20′ (children [3]; [18]): .08 (.46)
- Beta (SE), Hg^0 dose-response, WRAVMA - Pegs Dominant (children [4]; boys, CPOX4 Het or Mut): −7.16 (2.90)*
- rpart, Hg^0 dose-response, WRAVMA - Pegs Dominant (children [4]; boys, CPOX4 Het or Mut): −.39 (.02)*
- Beta (SE), Hg^0 dose-response, WRAVMA - Pegs Dominant (children [4]; boys, CPOX WT): −.55 (1.58)
- rpart, Hg^0 dose-response, WRAVMA - Pegs Dominant (children [4]; boys, CPOX WT): −.04 (.73)
- Beta (SE), main effect Hg (ln), WRAVMA - Pegs Dominant (children [4]; boys, Year 7, cumulative Hg): .41 (1.49)
- rpart, main effect Hg (ln), WRAVMA - Pegs Dominant (children [4]; boys, Year 7, cumulative Hg): .03 (.27)
- direction of significant main effect of acute Hg^0 exposure, Peg test for the dominant hand (children [4]; girls, Year 2, p≦0.03): improved direction
- Beta (SE), Hg^0 dose-response, WRAVMA - Pegs Non Dom (children [5]; [19]): −5.87 (2.92)*
- rpart, Hg^0 dose-response, WRAVMA - Pegs Non Dom (children [5]; [19]): −.33 (.05)*
- Beta (SE), Hg^0 dose-response, WRAVMA - Pegs Non Dom (children [5]; [20]): −5.34 (2.72)
- rpart, Hg^0 dose-response, WRAVMA - Pegs Non Dom (children [5]; [20]): −.32 (.06)
- Beta (SE), Hg^0 dose-response, WRAVMA - Pegs Non Dom (children [5]; [21]): .41 (1.49)
- rpart, Hg^0 dose-response, WRAVMA - Pegs Non Dom (children [5]; [21]): .03 (.27)
- Beta (SE), Hg^0 dose-response, WRAVMA - Pegs Non Dom (children [5]; CPOX WT, Year 7, maximum Hg^0): .79 (1.44)
- rpart, Hg^0 dose-response, WRAVMA - Pegs Non Dom (children [5]; CPOX WT, Year 7, maximum Hg^0): .06 (.58)
- Beta (SE), Hg^0 dose-response, Finger Tapping - Dominant (children [6]; [19]): −4.03 (1.76)*
- rpart, Hg^0 dose-response, Finger Tapping - Dominant (children [6]; [19]): −.37 (.03)*
- Beta (SE), Hg^0 dose-response, Finger Tapping - Dominant (children [6]; [20]): −3.46 (1.65)*
- rpart, Hg^0 dose-response, Finger Tapping - Dominant (children [6]; [20]): −.34 (.04)*
- Beta (SE), Hg^0 dose-response, Finger Tapping - Dominant (children [6]; [22]): −3.25 (1.53)*
- rpart, Hg^0 dose-response, Finger Tapping - Dominant (children [6]; [22]): −.32 (.04)*
- Beta (SE), Hg^0 dose-response, Finger Tapping - Dominant (children [6]; [21]): 1.59 (1.22)
- rpart, Hg^0 dose-response, Finger Tapping - Dominant (children [6]; [21]): .15 (.20)
- Beta (SE), Hg^0 dose-response, Finger Tapping - Dominant (children [6]; CPOX WT, Year 7, maximum Hg^0): 2.59
- rpart, Hg^0 dose-response, Finger Tapping - Dominant (children [6]; CPOX WT, Year 7, maximum Hg^0): .25
- Beta (SE), Hg^0 dose-response, Finger Tapping - Dominant (children [6]; [23]): 1.21 (.91)
- rpart, Hg^0 dose-response, Finger Tapping - Dominant (children [6]; [23]): .13 (.19)
- Beta (SE), Hg^0 dose-response, Finger Tapping - Non Dom (children [7]; [19]): −7.24 (1.67)*
- rpart, Hg^0 dose-response, Finger Tapping - Non Dom (children [7]; [19]): −.60 (.0001)*
- rpart, Hg^0 dose-response, Finger Tapping - Non Dom (children [7]; [20]): −.52 (.001*)
- Beta (SE), Hg^0 dose-response, Finger Tapping - Non Dom (children [7]; [21]): 1.07 (1.27)
- rpart, Hg^0 dose-response, Finger Tapping - Non Dom (children [7]; [21]): .10 (.40)
- Beta (SE), Hg^0 dose-response, Finger Tapping - Non Dom (children [7]; CPOX WT, Year 7, maximum Hg^0): 2.14 (1.21)
- rpart, Hg^0 dose-response, Finger Tapping - Non Dom (children [7]; CPOX WT, Year 7, maximum Hg^0): 20 (.08)
- Beta (SE), main effect Hg (ln), WAIS-III - Symbol Search (children [8]; Year 7, cumulative Hg): −3.48 (1.54)*
- rpart, main effect Hg (ln), WAIS-III - Symbol Search (children [8]; Year 7, cumulative Hg): −.20 (.03)*
- Beta (SE), main effect Hg (ln), WAIS-III - Symbol Search (children [8]; Year 7, maximum Hg): −2.91 (1.49)*
- rpart, main effect Hg (ln), WAIS-III - Symbol Search (children [8]; Year 7, maximum Hg): −.18 (.05)*
- Beta (SE), main effect Hg (ln), WMS-III - Visual Reproduction - Immediate (children [9]; Year 7, cumulative Hg): −1.66 (.83)*
- rpart, main effect Hg (ln), WMS-III - Visual Reproduction - Immediate (children [9]; Year 7, cumulative Hg): −.18 (.05)*
- Beta (SE), main effect Hg (ln), WMS-III - Visual Reproduction - Immediate (children [9]; Year 7, maximum Hg): −1.63 (.80)*
- rpart, main effect Hg (ln), WMS-III - Visual Reproduction - Immediate (children [9]; Year 7, maximum Hg): −.19 (.04)*
- Beta (SE), main effect Hg (ln), WMS-III - Visual Reproduction - Delayed (children [10]; Year 7, cumulative Hg): −2.95 (1.24)*
- rpart, main effect Hg (ln), WMS-III - Visual Reproduction - Delayed (children [10]; Year 7, cumulative Hg): −.22 (.02)*
- Beta (SE), main effect Hg (ln), WMS-III - Visual Reproduction - Delayed (children [10]; Year 7, maximum Hg): −2.70 (1.19)*
- rpart, main effect Hg (ln), WMS-III - Visual Reproduction - Delayed (children [10]; Year 7, maximum Hg): −.21 (.02)*
- direction of significant main effect of acute Hg^0 exposure, RAVALT Trial 6 test (children [11]): improved direction
- main effects of chronic Hg^0 exposure (children [12]; all girls, either measure of chronic exposure): no significant associations
- cumulative Hg^0 dose-response effects on neurobehavioral test performance (children [12]; boys genotyped as CPOX wild type, Year 7): no significant cumulative Hg^0 dose-response effects
- number of tests with significant dose-response relationships (impaired direction) (children [12]; boys with CPOX4 variant status, Year 7, maximum exposure): 14
- number of the 23 neurobehavioral tests with significant Hg^0 dose-response effects (impaired direction) (children [12]; boys with at least one CPOX4 variant allele, Year 7, cumulative exposure): 11
- dose-response relationships for chronic Hg^0 exposure (children [12]; girls, CPOX wild type or CPOX4 variant evaluated separately, maximum or cumulative measures): no significant dose-response relationships
